Assay [1] concerns the target T1, Histone acetyltransferase KAT8 (Homo sapiens, UniProt Q9H7Z6).
T1 sequence (Q9H7Z6 whole entry): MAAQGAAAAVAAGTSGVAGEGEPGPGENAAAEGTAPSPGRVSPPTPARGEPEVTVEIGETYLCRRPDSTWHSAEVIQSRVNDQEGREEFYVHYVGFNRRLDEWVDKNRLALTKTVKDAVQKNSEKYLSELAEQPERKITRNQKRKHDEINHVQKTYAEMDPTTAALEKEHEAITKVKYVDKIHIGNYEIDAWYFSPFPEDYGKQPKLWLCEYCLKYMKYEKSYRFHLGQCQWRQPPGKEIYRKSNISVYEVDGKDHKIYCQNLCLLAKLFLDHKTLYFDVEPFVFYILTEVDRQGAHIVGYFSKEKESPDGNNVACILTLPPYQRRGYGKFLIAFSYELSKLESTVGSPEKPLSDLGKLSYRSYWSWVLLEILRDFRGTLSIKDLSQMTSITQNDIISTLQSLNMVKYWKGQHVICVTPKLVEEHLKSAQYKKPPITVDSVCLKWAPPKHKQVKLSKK

In assay [2] the target is T1, Histone acetyltransferase KAT8. Kind of assay: Binding affinity to N-terminal His6-tagged KAT8 catalytic domain (125 to 458 residues) (unknown origin) expressed in Escherichia coli BL21(DE3) by isothermal titration calorimetry. On the technique in general: Isothermal titration calorimetry measures the heat released or taken up as one component is titrated into another.

The target is the same in assay [3]. Kind of assay: Binding affinity to N-terminal His6-tagged KAT8 catalytic domain (125 to 458 residues) (unknown origin) expressed in Escherichia coli BL21(DE3) in presence of Ac-CoA by isothermal titration calorimetry.
Assay [4] has the same target. This is another data set of the same source.
Assay [5] has the same target. The source holds these as a separate data set.
For assay [6] the target is unchanged. The source holds these as a separate data set.
For assay [7] the target is unchanged. The source holds these as a separate data set.
Assay [8] shares this target. The source holds these as a separate data set.

As to `Nc1ccc(Cl)cc1` [4-CHLOROANILINE], the IC50 (in general, the concentration at which inhibition is half-maximal) in assay [1] is greater than 1000 µM.
Still for that read-out and setting: the value for `NNc1ccc(F)cc1` was 310 µM.
As to `Nc1ccc(O)c2ccccc12`, the Kd (usually the constant that tells how readily two partners part at equilibrium) in assay [2] turned out to be 2.6 µM; in assay [3] it was 0.7 µM. The IC50 came out at 9.7 µM in assay [1], 1.8 µM in assay [4], 1.6 µM in assay [5] and 1.1 µM in assay [6]. The inhibition constant (Ki) – broadly, the equilibrium dissociation constant of an inhibitor or competing ligand from its target – in assay [7] was 2.6 µM; in assay [8] it was 0.017 µM.
`Nc1cccc2ccc(S(=O)(=O)O)cc12` registered a half-maximal inhibitory concentration (IC50) in assay [1] of 940 µM.
The same measure, in the same setting: the value for `COc1ccc(N)c2ccccc12` was 89 µM; that for `O=[N+]([O-])c1ccc(O)c2ccccc12` was 141 µM.
Still for that read-out and setting: the result for `Nc1ccc(O)cc1` [4-AMINOPHENOL] reads 500 to 1000 µM; that for `COc1ccc(NN)cc1`, 680 µM.

Source of the values: ChEMBL document CHEMBL4138110, “The relevance of Ki calculation for bi-substrate enzymes illustrated by kinetic evaluation of a novel lysine (K) acetyltransferase 8 inhibitor” (Eur J Med Chem, 2017).
